Results: ChEMBL document CHEMBL3864133, “Discovery of a Potent and Selective in Vivo Probe (GNE-272) for the Bromodomains of CBP/EP300” (J Med Chem, 2016)

Target: Bromodomain-containing protein 4 (Homo sapiens, UniProt O60885)
Assay: Displacement of biotinylated ligand from recombinant His-tagged BRD4 bromodomain-1 (unknown origin) measured after 10 mins by TR-FRET assay

SMILES	IC50
CNC(=O)c1cccc(Nc2nn(CC3CC3)c3c2CN(C(C)=O)CC3)c1	12 µM
CC(=O)N1CCc2c(c(Nc3cccc(C(=O)N(C)C)c3)nn2CC2CC2)C1	13 µM
